Measurements: the Kinase Knowledgebase extract (Sharma et al. 2016)

The chains behind the UniProt entries cited, without tags or fusion partners.
UniProt Q16539, whole entry, looked up: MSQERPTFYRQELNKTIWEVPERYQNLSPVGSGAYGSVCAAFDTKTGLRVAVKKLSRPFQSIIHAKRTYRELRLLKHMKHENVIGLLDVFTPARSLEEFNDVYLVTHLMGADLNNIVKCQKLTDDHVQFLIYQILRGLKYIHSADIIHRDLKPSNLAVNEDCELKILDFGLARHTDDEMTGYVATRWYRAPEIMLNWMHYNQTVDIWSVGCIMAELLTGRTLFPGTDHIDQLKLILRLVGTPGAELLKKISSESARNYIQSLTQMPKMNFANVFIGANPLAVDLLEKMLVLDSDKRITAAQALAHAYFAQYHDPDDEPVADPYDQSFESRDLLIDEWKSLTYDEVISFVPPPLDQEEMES

Biological target: MAPK14 (human) (UniProt Q16539)
Test: Inhibition of LPS Stimulated TNF Production by U937 Cells
Conditions: concentration not given here

inhibition | SMILES
45% | C[C@H](NC(=O)Nc1ccccc1)c1[nH]nc(-c2ccc(F)cc2)c1-c1ccncc1
25% | C[C@H](NC(=O)c1cccc2ccccc12)c1[nH]nc(-c2ccc(F)cc2)c1-c1ccncc1
80% | C[C@H](NS(=O)(=O)N(C)C)c1[nH]nc(-c2ccc(F)cc2)c1-c1ccncc1
